{
  "source": "patent US20130123254A1",
  "about": "“PHARMACEUTICALLY ACCEPTABLE MGLUR5 POSITIVE ALLOSTERIC MODULATORS AND THEIR METHODS OF IDENTIFICATION” (priority 2011, published 2013)",
  "experiment": "HTD/LTD dose, tolerability in rat",
  "settings": "observation at the HTD/LTD dose",
  "data": [
    {"smiles": "CN1C(=O)N(c2ccc(C#Cc3ccccc3)cn2)CC1(C)C", "note": "[Example 14]", "values": [
      {"measurement": "HTD/LTD Dose (rat) (observation)", "value": "seizures"}
    ]}
  ]
}
